Assay results reported in patent US11091477B2 (Madera Therapeutics, LLC, priority 2016, dated 2021).
Where two headings read alike, the source gives them in different places.

Test system: MDA-MB-231 (MDA 231, human breast adenocarcinoma)
Test: CCK-8 cell viability assay on MDA-MB-231 human breast adenocarcinoma cells
Assay type: cell-based
[1] = MDA-MB-231 cells, 48 hours compound incubation, CCK-8, read-out: EC50 (uM, MDA 231)
[2] = MDA-MB-231, 48 h, read-out: EC50 (uM, MDA 231)

| SMILES | EC50 [1] [µM] | EC50 [2] [µM] |
| --- | --- | --- |
| CC(C)n1c2c(c(=O)n(Cc3ccc(C(F)(F)F)cc3)c1=O)CN(Cc1ccccc1)CC2 [Example 10, 3-(4-(trifluoromethyl)benzyl)-6-benzyl-5,6,7,8-tetrahydro-1-isopropylpyrido[4,3-d]pyrimidine-2,4(1H,3H)-dione] | 4 |  |
| Cn1c2c(c(=O)n(Cc3ccc(C(F)(F)F)cc3)c1=O)CN(Cc1cccc(Cl)c1)CC2 [Example 22, 6-(3-chlorobenzyl)-1-methyl-3-(4-(trifluoromethyl)benzyl)-5,6,7,8-tetrahydropyrido[4,3-d]pyrimidine-2,4(1H,3H)-dione] | 0.29 |  |
| Cn1c2c(c(=O)n(Cc3cccc(Cl)c3)c1=O)CN(Cc1ccccc1)CC2 [Example 15, 3-(3-chlorobenzyl)-6-benzyl-5,6,7,8-tetrahydro-1-methylpyrido[4,3-d]pyrimidine-2,4(1H,3H)-dione] | 2.1 |  |
| Cc1cccc(Cn2c(=O)[nH]c3c(c2=O)CN(Cc2ccccc2)CC3)c1 [Example 2, 6-benzyl-3-[(3-methylphenyl)methyl]-1H, 2H, 3H, 4H, 5H, 6H, 7H, 8H-pyrido[4,3-d]pyrimidine-2,4-dione] | 3.6 |  |
| CC(C)n1c2c(c(=O)n(Cc3ccc(Cl)cc3)c1=O)CN(Cc1ccccc1)CC2 [Example 7, 6-benzyl-3-(4-chlorobenzyl)-1-isopropyl-5,6,7,8-tetrahydropyrido[4,3-d]pyrimidine-2,4(1H,3H)-dione] | 14 |  |
| Cn1c2c(c(=O)[nH]c1=O)CN(Cc1ccccc1)CC2 [Example 1, 6-benzyl-1-methyl-5,6,7,8-tetrahydropyrido[4,3-d]pyrimidine-2,4(1H,3H)-dione] | > 100 |  |
| Cn1c2c(c(=O)n(Cc3ccc(C(F)(F)F)cc3)c1=O)CN(Cc1cccc(C#N)c1)CC2 [Example 26, 3-((1-methyl-2,4-dioxo-3-(4-(trifluoromethyl)benzyl)-1,2,3,4,7,8-hexahydropyrido[4,3-d]pyrimidin-6(5H)-yl)methyl)benzonitrile] | 0.085 |  |
| Cn1c2c(c(=O)n(Cc3ccc(Cl)cc3)c1=O)CN(Cc1cccc(C#N)c1)CC2 [Example 25, 3-((3-(4-chlorobenzyl)-1-methyl-2,4-dioxo-1,2,3,4,7,8-hexahydropyrido[4,3-d]pyrimidin-6(5H)-yl)methyl)benzonitrile] |  | 0.19 |
| Cn1c2c(c(=O)n(Cc3ccc(C(F)(F)F)cc3)c1=O)CN(Cc1ccccc1)CC2 [Example 9] | 1.1 |  |
| C#Cc1cccc(CN2CCc3c(c(=O)n(Cc4cccc(C)c4)c(=O)n3C)C2)c1 [Example 20, 6-(3-ethynylbenzyl)-1-methyl-3-(3-methylbenzyl)-5,6,7,8-tetrahydropyrido[4,3-d]pyrimidine-2,4(1H,3H)-dione] | 0.55 |  |
| CCn1c2c(c(=O)n(Cc3cccc(C(F)(F)F)c3)c1=O)CN(Cc1ccccc1)CC2 [Example 14, 3-(3-(trifluoromethyl)benzyl)-6-benzyl-1-ethyl-5,6,7,8-tetrahydropyrido[4,3-d]pyrimidine-2,4(1H,3H)-dione] | 1 |  |
| Cn1c2c(c(=O)n(Cc3ccc(Cl)cc3)c1=O)CN(Cc1ccccc1)CC2 [Example 6, 6-benzyl-3-(4-chlorobenzyl)-1-methyl-5,6,7,8-tetrahydropyrido[4,3-d]pyrimidine-2,4(1H,3H)-dione] | 0.29 |  |
| C#Cc1cccc(CN2CCc3c(c(=O)n(Cc4ccccc4C)c(=O)n3C)C2)c1 [Example 19, 6-(3-ethynylbenzyl)-1-methyl-3-(2-methylbenzyl)-5,6,7,8-tetrahydropyrido[4,3-d]pyrimidine-2,4(1H,3H)-dione] | 1.1 |  |
| Cn1c2c(c(=O)n(Cc3ccc4c(c3)OCO4)c1=O)CN(Cc1ccccc1)CC2 [Example 23, 3-(benzo[d][1,3]dioxol-5-ylmethyl)-6-benzyl-1-methyl-5,6,7,8-tetrahydropyrido[4,3-d]pyrimidine-2,4(1H,3H)-dione] | 2.6 |  |
| Cn1c2c(c(=O)n(Cc3cccc(Br)c3)c1=O)CN(Cc1ccccc1)CC2 [Example 17, 6-benzyl-3-(3-bromobenzyl)-1-methyl-5,6,7,8-tetrahydropyrido[4,3-d]pyrimidine-2,4(1H,3H)-dione] | 0.86 |  |
| C#Cc1cccc(CN2CCc3c(c(=O)n(Cc4ccc(C(F)(F)F)cc4)c(=O)n3C)C2)c1 [Example 18, 6-(3-ethynylbenzyl)-1-methyl-3-(4-(trifluoromethyl)benzyl)-5,6,7,8-tetrahydropyrido[4,3-d]pyrimidine-2,4(1H,3H)-dione] | 0.68 |  |
| Cc1cccc(Cn2c(=O)c3c(n(C(C)C)c2=O)CCN(Cc2ccccc2)C3)c1 [Example 4, 6-benzyl-1-isopropyl-3-(3-methylbenzyl)-5,6,7,8-tetrahydropyrido[4,3-d]pyrimidine-2,4(1H,3H)-dione] | 4.1 |  |
| C#Cc1cccc(CN2CCc3c(c(=O)n(Cc4ccc(Cl)cc4)c(=O)n3C)C2)c1 [Example 21, 3-(4-chlorobenzyl)-6-(3-ethynylbenzyl)-1-methyl-5,6,7,8-tetrahydropyrido[4,3-d]pyrimidine-2,4(1H,3H)-dione] | 0.63 |  |
| CCn1c2c(c(=O)n(Cc3ccc(Cl)cc3)c1=O)CN(Cc1cccc(C#N)c1)CC2 [Example 28, 3-((3-(4-chlorobenzyl)-1-ethyl-2,4-dioxo-1,2,3,4,7,8-hexahydropyrido[4,3-d]pyrimidin-6(5H)-yl)methyl)benzonitrile] | 0.022 |  |
| Cc1cccc(Cn2c(=O)c3c(n(C)c2=O)CCN(Cc2ccccc2)C3)c1 [Example 3, 6-benxyl-1-methyl-3-[(3-methylphenyl)methyl]-1H, 2H, 3H, 4H, 5H, 6H, 7H, 8H-pyrido[4,3-d]pyrimidine-2,4-dione] | 0.24 |  |
| O=c1[nH]c2c(c(=O)n1Cc1ccc(C(F)(F)F)cc1)CN(Cc1ccccc1)CC2 [Example 8, 3-(4-(trifluoromethyl)benzyl)-6-benzyl-5,6,7,8-tetrahydropyrido[4,3-d]pyrimidine-2,4(1H,3H)-dione] | 1.3 |  |
| O=c1[nH]c2c(c(=O)n1Cc1ccc(Cl)cc1)CN(Cc1ccccc1)CC2 [Example 5, 6-benzyl-3-(4-chlorobenzyl)-5,6,7,8-tetrahydropyrido[4,3-d]pyrimidine-2,4(1H,3H)-dione] | 10 |  |
| Cc1ccccc1CN1C(=O)C2=C(CCN(Cc3ccccc3)C2)N2CCN=C12 [TIC10, 11-benzyl-7-[(2-methylphenyl)methyl]-2,5,7,11-tetraazatricyclo[7.4.0.0^2,6]trideca-1(9),5-dien-8-one, reference compound] |  | 3 |
| Cn1c2c(c(=O)n(Cc3cccc(C(F)(F)F)c3)c1=O)CN(Cc1ccccc1)CC2 [Example 13] |  | 1.1 |
| Cn1c2c(c(=O)n(Cc3ccc(Br)cc3)c1=O)CN(Cc1cccc(C#N)c1)CC2 [Example 24, 3-((3-(4-bromobenzyl)-1-methyl-2,4-dioxo-1,2,3,4,7,8-hexahydropyrido[4,3-d]pyrimidin-6(5H)-yl)methyl)benzonitrile] | 0.11 |  |
| CCn1c2c(c(=O)n(Cc3ccc(C(F)(F)F)cc3)c1=O)CN(Cc1cccc(C#N)c1)CC2 [Example 27, 3-((1-ethyl-2,4-dioxo-3-(4-(trifluoromethyl)benzyl)-1,2,3,4,7,8-hexahydropyrido[4,3-d]pyrimidin-6(5H)-yl)methyl)benzonitrile] | 0.22 |  |
| Cc1cccc(CN2CCc3c(c(=O)n(Cc4ccc(C(F)(F)F)cc4)c(=O)n3C)C2)c1 [Example 29, 1-methyl-6-(3-methylbenzyl)-3-(4-(trifluoromethyl)benzyl)-5,6,7,8-tetrahydropyrido[4,3-d]pyrimidine-2,4(1H,3H)-dione] | 1.4 |  |
